# Results taken from paper PMC5839545, “CENP-C/H/I/K/M/T/W/N/L and hMis12 but not CENP-S/X participate in complex formation in the nucleoplasm of living human interphase cells outside centromeres” (PLoS ONE, 2018).
# Several values for one entry are separate records, joined by “and”; a condition that tells them apart may be missing. Equal entries are not always repeated.
# T1: mCherry-(s)-CENP-K (human, UniProt Q9BS16 1-269)
# T1 construct: CENP-K, human; also called mCherry-CENP-K; source: HEp-2 or U2OS cells, transfected by electroporation, in living cells
# T1 sequence (looked up): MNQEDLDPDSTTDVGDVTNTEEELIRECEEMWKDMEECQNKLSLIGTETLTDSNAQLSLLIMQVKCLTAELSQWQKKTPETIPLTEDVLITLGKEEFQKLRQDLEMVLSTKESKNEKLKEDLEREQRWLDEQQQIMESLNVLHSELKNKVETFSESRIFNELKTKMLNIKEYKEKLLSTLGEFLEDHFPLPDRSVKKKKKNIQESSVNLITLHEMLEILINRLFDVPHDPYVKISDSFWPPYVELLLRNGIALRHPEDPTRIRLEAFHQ
# T2: mCherry-(l)-CENP-S (human, UniProt Q8N2Z9 1-138)
# T2 construct: CENP-S, human; source: HEp-2 or U2OS cells, transfected by electroporation, in living cells; not shown: mCherry (long linker [residues removed]), N-terminal, kept
# T2 sequence (looked up): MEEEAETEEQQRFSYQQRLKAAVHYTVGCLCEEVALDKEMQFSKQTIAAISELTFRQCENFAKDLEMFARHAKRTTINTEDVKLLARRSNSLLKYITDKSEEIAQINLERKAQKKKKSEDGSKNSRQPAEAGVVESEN
# T3: EGFP-(s)-CENP-T^∆N (human, UniProt Q96BT3 396-561)
# T3 construct: CENP-T, human, C-terminal domain, aas 396-561, said to contain the histone-fold domain (aas 376-561); also called EGFP-(s)-CENP-T^396-561; source: HEK293 cells, transfected by electroporation, in living cells
# T3 sequence (looked up): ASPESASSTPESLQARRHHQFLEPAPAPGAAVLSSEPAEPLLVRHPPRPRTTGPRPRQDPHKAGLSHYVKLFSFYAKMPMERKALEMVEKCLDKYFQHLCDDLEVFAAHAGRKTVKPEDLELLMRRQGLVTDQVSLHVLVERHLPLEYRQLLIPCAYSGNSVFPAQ
# B1: EGFP-(s)-CENP-S (natural protein, human, UniProt Q8N2Z9 1-138, looked up)
# chain: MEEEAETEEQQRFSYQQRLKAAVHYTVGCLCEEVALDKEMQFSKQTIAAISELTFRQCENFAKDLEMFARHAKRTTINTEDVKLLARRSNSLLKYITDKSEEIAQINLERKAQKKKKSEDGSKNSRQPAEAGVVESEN
# notes: CENP-S, human; source: HEK293 cells, transfected by electroporation, in living cells
# B2: mCherry-(s)-CENP-X (natural protein, human, UniProt A8MT69 1-81, looked up)
# chain: MEGAGAGSGFRKELVSRLLHLHFKDDKTKVSGDALQLMVELLKVFVVEAAVRGVRQAQAEDALRVDVDQLEKVLPQLLLDF
# notes: CENP-X, human; source: HEp-2 or U2OS cells (DC-FCCS) and HEK293 cells (SW-FCCS), transfected by electroporation, in living cells
# B3: mCherry-(s)-CENP-W (natural protein, human, UniProt Q5EE01 1-88, looked up)
# chain: MALSTIVSQRKQIKRKAPRGFLKRVFKRKKPQLRLEKSGDLLVHLNCLLFVHRLAEESRTNACASKCRVINKEHVLAAAKVILKKSRG
# notes: CENP-W, human; source: HEp-2 or U2OS cells (DC-FCCS) and HEK293 cells (SW-FCCS), transfected by electroporation, in living cells
# Columns and labels:
# Details in all cases: partners not purified
# mCherry-(s)-CENP-C = molecular target: T4, mCherry-(s)-CENP-C (human); test: dual color fluorescence cross-correlation spectroscopy (DC-FCCS); EGFP and mCherry fusion proteins co-expressed in living interphase HEp-2 or U2OS cells; spots in the nucleoplasm free of kinetochores, focal volume bleached before; 37°C; 488 and 561 nm; corrected values are the measured ones times about two
# T4 construct: CENP-C, human; source: HEp-2 or U2OS cells, transfected by electroporation, in living cells
# CENP-C-(s)-mCherry = molecular target: T5, CENP-C-(s)-mCherry (human); test: as above
# T5 construct: CENP-C, human; source: HEp-2 or U2OS cells, transfected by electroporation, in living cells; not shown: mCherry (short linker)
# mCherry-(s)-CENP-K = molecular target: T1, mCherry-(s)-CENP-K; test: as above
# mCherry-(l)-CENP-S = molecular target: T2, mCherry-(l)-CENP-S; test: as above
# mCherry-(s)-CENP-W = molecular target: B3; test: as above
# CENP-T-(s)-mCherry = molecular target: T6, CENP-T-(s)-mCherry (human, UniProt Q96BT3); test: as above
# T6 construct: CENP-T, human; called full-length CENP-T against its N-terminal domain; source: HEp-2 or U2OS cells, transfected by electroporation, in living cells; not shown: mCherry (short linker)
# mCherry-(s)-CENP-X = molecular target: B2; test: single-wavelength fluorescence cross-correlation spectroscopy (SW-FCCS); EGFP and mCherry fusion proteins co-expressed in living interphase HEK293 cells; nucleoplasm; 37°C; 514 nm; effective (apparent) Kd from scatter plot (S) or histogram (H), corrected for non-fluorescent mCherry and observation volumes
# EGFP-(s)-CENP-S = molecular target: B1; test: as above
# mCherry-(s)-CENP-T = molecular target: T7, mCherry-(s)-CENP-T (human, UniProt Q96BT3); test: as above
# T7 construct: CENP-T, human; called wildtype against CENP-T^∆N; source: HEp-2 or U2OS cells (DC-FCCS) and HEK293 cells (SW-FCCS), transfected by electroporation, in living cells
# EGFP-(s)-CENP-T^∆N = molecular target: T3, EGFP-(s)-CENP-T^∆N; test: as above
binder,measurement,setting,value
"EGFP-(s)-CENP-H (natural protein, human, UniProt Q9H3R5 1-247, looked up, CENP-H, human; source: HEp-2 or U2OS cells, transfected by electroporation, in living cells) MEEQPQMQDADEPADSGGEGRAGGPPQVAGAQAACSEDRMTLLLRLRAQTKQQLLEYKSMVDASEEKTPEQIMQEKQIEAKIEDLENEIEEVKVAFEIKKLALDRMRLSTALKKNLEKISRQSSVLMDNMKHLLELNKLIMKSQQESWDLEEKLLDIRKKRLQLKQASESKLLEIQTEKNKQKIDLDSMENSERIKIIRQNLQMEIKITTVIQHVFQNLILGSKVNWAEDPALKEIVLQLEKNVDMM","cross-correlation, measured (%)",mCherry-(s)-CENP-C,26%
same,"cross-correlation, measured (%)",CENP-C-(s)-mCherry,18%
same,"cross-correlation, measured (%)",mCherry-(s)-CENP-K,31%
"EGFP-(l)-CENP-L (natural protein, human, UniProt Q8N0S6 1-344, looked up, CENP-L, human; source: HEp-2 or U2OS cells, transfected by electroporation, in living cells; not shown: EGFP (long linker [residues removed]), N-terminal, kept) MDSYSAPESTPSASSRPEDYFIGATPLQKRLESVRKQSSFILTPPRRKIPQCSQLQEDVDPQKVAFLLHKQWTLYSLTPLYKFSYSNLKEYSRLLNAFIVAEKQKGLAVEVGEDFNIKVIFSTLLGMKGTQRDPEAFLVQIVSKSQLPSENREGKVLWTGWFCCVFGDSLLETVSEDFTCLPLFLANGAESNTAIIGTWFQKTFDCYFSPLAINAFNLSWMAAMWTACKMDHYVATTEFLWSVPCSPQSLDISFAIHPEDAKALWDSVHKTPGEVTQEEVDLFMDCLYSHFHRHFKIHLSATRLVRVSTSVASAHTDGKIKILCHKYLIGVLAYLTELAIFQIE","cross-correlation, measured (%)",mCherry-(s)-CENP-K,18%
"EGFP-(s)-CENP-X (natural protein, human, UniProt A8MT69 1-81, looked up, CENP-X, human; source: HEp-2 or U2OS cells (DC-FCCS) and HEK293 cells (SW-FCCS), transfected by electroporation, in living cells) MEGAGAGSGFRKELVSRLLHLHFKDDKTKVSGDALQLMVELLKVFVVEAAVRGVRQAQAEDALRVDVDQLEKVLPQLLLDF","cross-correlation, measured (%)",mCherry-(l)-CENP-S,31%
"CENP-T-(s)-EGFP (natural protein, human, CENP-T, human; source: HEp-2 or U2OS cells, transfected by electroporation, in living cells; not shown: EGFP (short linker)) MADHNPDSDSTPRTLLRRVLDTADPRTPRRPRSARAGARRALLETASPRKLSGQTRTIARGRSHGARSVGRSAHIQASGHLEEQTPRTLLKNILLTAPESSILMPESVVKPVPAPQAVQPSRQESSCGSLELQLPELEPPTTLAPGLLAPGRRKQRLRLSVFQQGVDQGLSLSQEPQGNADAS[about 40 residues not printed]AVDVGAFLRDLRDTSLAPPNIVLEDTQPFSQPMVGSPNVYHSLPCTPHTGAEDAEQAAGRKTQSSGPGLQKNSPGKPAQFLAGEAEEVNAFALGFLSTSSGVSGEDEVEPLHDGVEEAEKKMEEEGVSVSEMEATGAQGPSRVEEAEGHTEVTEAEGSQGTAEADGPGASSGDEDASGRAASPESASSTPESLQARRHHQFLEPAPAPGAAVLSSEPAEPLLVRHPPRPRTTGPRPRQDPHKAGLSHYVKLFSFYAKMPMERKALEMVEKCLDKYFQHLCDDLEVFAAHAGRKTVKPEDLELLMRRQGLVTDQVSLHVLVERHLPLEYRQLLIPCAYSGNSVFPAQ","cross-correlation, measured (%)",mCherry-(s)-CENP-W,28%
"EGFP-(s)-CENP-M (natural protein, human, UniProt Q9NSP4 1-180, looked up, CENP-M, human; source: HEp-2 or U2OS cells, transfected by electroporation, in living cells) MSVLRPLDKLPGLNTATILLVGTEDALLQQLADSMLKEDCASELKVHLAKSLPLPSSVNRPRIDLIVFVVNLHSKYSLQNTEESLRHVDASFFLGKVCFLATGAGRESHCSIHRHTVVKLAHTYQSPLLYCDLEVEGFRATMAQRLVRVLQICAGHVPGVSALNLLSLLRSSEGPSLEDL","cross-correlation, measured (%)",CENP-T-(s)-mCherry,13%
"CENP-K-(s)-EGFP (natural protein, human, UniProt Q9BS16 1-269, looked up, CENP-K, human; source: HEp-2 or U2OS cells, transfected by electroporation, in living cells; not shown: EGFP (short linker)) MNQEDLDPDSTTDVGDVTNTEEELIRECEEMWKDMEECQNKLSLIGTETLTDSNAQLSLLIMQVKCLTAELSQWQKKTPETIPLTEDVLITLGKEEFQKLRQDLEMVLSTKESKNEKLKEDLEREQRWLDEQQQIMESLNVLHSELKNKVETFSESRIFNELKTKMLNIKEYKEKLLSTLGEFLEDHFPLPDRSVKKKKKNIQESSVNLITLHEMLEILINRLFDVPHDPYVKISDSFWPPYVELLLRNGIALRHPEDPTRIRLEAFHQ","cross-correlation, measured (%)",CENP-T-(s)-mCherry,31%
B1,"dimer, corrected (%)",mCherry-(s)-CENP-X,58%
same,"dimer, uncorrected (%)",mCherry-(s)-CENP-X,41.6%
B2,Kd,EGFP-(s)-CENP-S,264 nM and 287 nM
"EGFP-(s)-CENP-W (natural protein, human, UniProt Q5EE01 1-88, looked up, CENP-W, human; source: HEK293 cells, transfected by electroporation, in living cells) MALSTIVSQRKQIKRKAPRGFLKRVFKRKKPQLRLEKSGDLLVHLNCLLFVHRLAEESRTNACASKCRVINKEHVLAAAKVILKKSRG",Kd,mCherry-(s)-CENP-T,538 nM and 340 nM
same,"Kd, uncorrected",mCherry-(s)-CENP-T,1500 nM and 626 nM
same,"dimer, corrected (%)",mCherry-(s)-CENP-T,51%
same,"dimer, uncorrected (%)",mCherry-(s)-CENP-T,35.4%
B3,Kd,EGFP-(s)-CENP-T^∆N,1300 nM and 944 nM
